Results taken from ChEMBL document CHEMBL1132189, “Three-dimensional quantitative structure-activity relationship analyses using comparative molecular field analysis and comparative molecular similarity indices analysis to elucidate selectivity differences of inhibitors binding to trypsin, thrombin, and factor Xa” (J Med Chem, 1999).

Target: Prothrombin (Bos taurus, UniProt P00735)
Test: Binding affinity towards thrombin

CS(=O)(=O)N1CCN(C(=O)[C@H](Cc2cccc(C(=N)N)c2)NS(=O)(=O)c2ccc3ccccc3c2)CC1 was tested. Which Ki did it give?
The Ki was 3.3 nM.
